## Antibody variant affinities, Ab-14 heavy chain, assay B

Antigen: PDVDLGDISGINAS, a 14-residue peptide of the SARS-CoV-2 spike HR2 region.

Parent: Ab-14, a human scFv built as VH, a (GGGGS)3 linker, VL. Only the CDRs of the heavy chain vary.
VH: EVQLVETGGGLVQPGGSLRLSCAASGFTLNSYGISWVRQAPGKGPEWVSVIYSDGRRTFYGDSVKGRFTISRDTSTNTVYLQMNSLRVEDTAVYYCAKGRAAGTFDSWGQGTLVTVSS
VL: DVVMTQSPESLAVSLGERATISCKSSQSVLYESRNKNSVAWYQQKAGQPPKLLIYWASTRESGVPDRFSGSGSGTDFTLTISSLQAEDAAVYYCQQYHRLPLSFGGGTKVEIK

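Phage display of a naive human antibody library on the peptide gave the parent. These sequences belong to a second round, designed from the earlier measurements on random variants of the parent. Their group label is 14H_En_Gibbs (En: ensemble of fine-tuned language models; Gibbs: Gibbs sampling). In AlphaSeq, yeast of one mating type display the scFv and yeast of the other type display the target. Pairs that bind mate more often; barcode pairs of the diploids are counted by sequencing. Scores were corrected for input abundance and mapped to Kd with protein pairs of known affinity run in the same pool. The assay was run in six technical replicates.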

The parent's heavy chain CDRs are GFTLNSYGIS, VIYSDGRRTFYGDSVK, GRAAGTFDS; each variant's own CDRs replace them letter for letter.
The read-out is the apparent dissociation constant on a log10 scale (nM): the lower, the stronger.
An entry "n.d." has no value in the source: the pair was not observed among the diploids in that replicate. This suggests poor binding but is not conclusive.

| CDR-H1 | CDR-H2 | CDR-H3 | log10 Kd, replicates | empty controls |
|---|---|---|---|---|
| GFALNEYGIS | VIYADGSRSAYINSVK | GVNNIDVNV | 1.28 / 0.78 / 0.44 / 1.14 / 0.45 / 0.50 | 0/18 |
| GYDIQDYGIS | VIYADGVRVAYHDSVK | GQTAGIFLL | n.d. / n.d. / n.d. / n.d. / n.d. / n.d. | 0/18 |
| GFNINEYGIS | VIYADGQRLSYDDKVK | GNITGTFNL | n.d. / n.d. / n.d. / n.d. / n.d. / n.d. | 0/18 |
| GFNLNEYGIS | VIYADGRRYQYIDSVK | GIVVGKVLY | n.d. / n.d. / n.d. / n.d. / n.d. / n.d. | 0/18 |
| GDDLENVGIS | VIYADGKRKQYAQNVK | GHTGGTFFD | n.d. / 4.69 / n.d. / n.d. / n.d. / n.d. | 1/18 (2.90) |
| GFEVDEYGIS | VIYADGKRSMYANKVK | GHIAGMMHV | 1.17 / 0.67 / 1.02 / 1.72 / n.d. / 0.61 | 0/18 |
| GDSLEEYGIS | VIYADGSRTSYQESVK | GLYAGMLDV | n.d. / n.d. / n.d. / n.d. / n.d. / n.d. | 0/18 |
| GFSLDEYGIS | VIYADGVRTQYHDNVK | GTGGFDIEL | n.d. / n.d. / n.d. / n.d. / n.d. / n.d. | 0/18 |
| GTDLEEYGIS | VIYADGRRAAYAQNVK | GFVGINVTD | 0.84 / 1.05 / 0.15 / 0.48 / 0.42 / 0.68 | 0/18 |
| GFDLDEQGIS | VIYADGQRTAYADQVK | GMIGDGFRT | n.d. / n.d. / n.d. / n.d. / n.d. / n.d. | 0/18 |
| GFDIEEYGIS | VIYADGYRQAYKQKVK | GQIAGGQFD | n.d. / n.d. / n.d. / n.d. / n.d. / n.d. | 0/18 |
| GFDLQEYGIS | VIYADGKRRAYENKVK | GQSGSSVVI | n.d. / n.d. / n.d. / n.d. / n.d. / n.d. | 0/18 |
| GFNLDEYGIS | VIYADGMRTFVSNAVK | GHNADFLFV | -0.66 / -1.28 / -0.65 / -1.02 / -1.06 / -1.02 | 0/18 |
| GFDLGEYGVS | VIYADGTRAQYADKVK | GNISYGFTV | n.d. / n.d. / n.d. / n.d. / n.d. / n.d. | 0/18 |
| GFDLGEYGIS | VIYADGVRTSYAQKVK | GKNGAISSV | n.d. / n.d. / n.d. / n.d. / n.d. / n.d. | 0/18 |
| GFDIDEYGIS | VIYADGQRKAYTDNVK | GRSGGMTVA | n.d. / n.d. / 2.48 / n.d. / n.d. / 2.32 | 2/18 (2.50) |
| GFKLDEYGIS | VIYADGRRTQYSDAFK | GTGDFDIEG | 2.45 / 1.48 / 2.23 / 2.31 / 1.28 / 1.79 | 0/18 |
| GQDLAEYGIS | VIYADGKRTMYANDVK | GHNDGQGKT | n.d. / n.d. / 2.67 / n.d. / n.d. / n.d. | 2/18 (2.54) |
| GQSLNEYGIS | VIYADGHRKMYANDVK | GKIGGIFED | n.d. / n.d. / n.d. / n.d. / n.d. / n.d. | 0/18 |
| GYDLDDYGIS | VIYADGKRTSYAEDVK | GLIGGSLSN | n.d. / n.d. / n.d. / n.d. / n.d. / n.d. | 0/18 |
| GFEIEEYGIS | VIYADGVRTMYTDNVK | GNILGLALT | n.d. / n.d. / n.d. / n.d. / n.d. / n.d. | 0/18 |
| GFDLEKYGIS | VIYADGRRSVYADDVK | GMLGATFGV | n.d. / n.d. / n.d. / n.d. / n.d. / n.d. | 1/18 (1.71) |
| GFDLQEYGVS | VIYADGRRMVYTNKFK | GQSTGTFDF | n.d. / n.d. / n.d. / n.d. / n.d. / n.d. | 0/18 |
| GFGLDEYGIS | VIYADGERKYYTDNVK | GHFGEDGIV | n.d. / n.d. / n.d. / n.d. / n.d. / n.d. | 0/18 |
| GFDLEDYGIS | VIYADGKRSFVSNNVK | GQLGNAFSM | 1.27 / 1.67 / 1.29 / 0.63 / 1.62 / 2.46 | 1/18 (1.92) |
| GFSIDEYGIS | VIYADGTRTAYIDNVK | GLIGMFCDI | n.d. / n.d. / n.d. / n.d. / n.d. / n.d. | 0/18 |
| GFNLDEYGIS | VIYADGQRTAYAKHVK | GTGGMIRGV | n.d. / 0.68 / n.d. / n.d. / n.d. / n.d. | 0/18 |
| GEDLDEYGIS | VIYADGRRQYYANNVK | GDIADVFDL | n.d. / n.d. / 1.81 / 3.48 / n.d. / n.d. | 0/18 |
| GDNLDEYGIS | VIYADGQRTAYSDPVK | GEWGVTVGK | n.d. / n.d. / n.d. / n.d. / n.d. / n.d. | 0/18 |
| GFDLNEMGIH | VIYADGIRTAVSNDVK | GNVAGTIDV | 0.10 / 0.14 / -0.37 / 0.02 / 0.32 / 0.32 | 0/18 |
| GKTLDEYGIS | VIYADGMRSMYADSVK | GGIDGWTFI | n.d. / n.d. / n.d. / n.d. / n.d. / n.d. | 0/18 |
| GIDLQEYGVS | VIYADGSRQSYADSVK | GQHAGYLDK | n.d. / n.d. / n.d. / n.d. / 2.35 / n.d. | 1/18 (2.30) |
| GFEIQDYGIS | VIYADGLRTQYSDKFK | GIIAGTINV | n.d. / 0.87 / n.d. / 3.15 / 2.12 / 2.47 | 0/18 |
| GFSLDEYGIS | VIYADGVRKHYADSVK | GNIAGYYFA | n.d. / n.d. / n.d. / n.d. / n.d. / n.d. | 0/18 |
| GYDLNEYGIS | VIYADGRRAAYIDDVK | GNVNDHVAV | n.d. / n.d. / n.d. / n.d. / n.d. / n.d. | 0/18 |
| GDKLEDYGIS | VIYADGRRSAYVDNVK | GEYAGYFNV | n.d. / n.d. / 2.13 / n.d. / n.d. / n.d. | 0/18 |
| GYDIEEYGIS | VIYADGKKNAFANSFK | GEWAGTFDD | n.d. / n.d. / n.d. / n.d. / n.d. / n.d. | 0/18 |
| GFQLDEYGIS | VIYADGQRTAYSKNVK | GYIDFKLIG | n.d. / n.d. / 2.24 / n.d. / n.d. / n.d. | 1/18 (3.07) |
| GFKLNEYGIS | VIYADGQRKSYADSFK | GTHAGMVFE | n.d. / n.d. / n.d. / n.d. / n.d. / n.d. | 0/18 |
| GKDLEEYGIS | VIYADGHRAAYIDSVK | GINMDVMTV | n.d. / n.d. / n.d. / n.d. / n.d. / n.d. | 0/18 |
| GKSLDEYGIS | VIYADGKRTMYANDVK | GHVGAIFMM | n.d. / n.d. / n.d. / n.d. / n.d. / n.d. | 0/18 |
| GFSLDDYGIS | VIYADGLRKAYVDEVK | GYVAGTFDE | -0.58 / -0.79 / -0.77 / -1.02 / -1.07 / -0.78 | 0/18 |
| GFELDEYGIS | VIYADGVRTQYKQSFK | GGSFGYIAG | n.d. / n.d. / n.d. / n.d. / n.d. / n.d. | 0/18 |
| GMDLSEYGIS | VIYADGMRTYASDSVK | GDMGGNLLY | n.d. / n.d. / n.d. / n.d. / n.d. / n.d. | 0/18 |

The 4 strongest on average among those seen in every replicate, once more:

CDR-H1	CDR-H2	CDR-H3	log10 Kd, replicates	empty controls
GFNLDEYGIS	VIYADGMRTFVSNAVK	GHNADFLFV	-0.66 / -1.28 / -0.65 / -1.02 / -1.06 / -1.02	0/18
GFSLDDYGIS	VIYADGLRKAYVDEVK	GYVAGTFDE	-0.58 / -0.79 / -0.77 / -1.02 / -1.07 / -0.78	0/18
GFDLNEMGIH	VIYADGIRTAVSNDVK	GNVAGTIDV	0.10 / 0.14 / -0.37 / 0.02 / 0.32 / 0.32	0/18
GTDLEEYGIS	VIYADGRRAAYAQNVK	GFVGINVTD	0.84 / 1.05 / 0.15 / 0.48 / 0.42 / 0.68	0/18

Of ten entries with the parent sequence, four were seen in most replicates (averages 0.34 to 2.37), three in one and three in none, so single entries are noisy.
Empty control strains, which show no peptide, gave a signal in 1% of pairings with all heavy chain designs; the median was 2.08 and 95% of these signals were weaker than 0.84. No background was subtracted. For each scFv, signals with the empty controls are counted beside the result, with their mean in brackets.
A sequence measured in both rounds can read differently, since the two assays cover different ranges.
The authors averaged sequences with at least three values out of six and counted those with two or fewer as poor binders.

The measurements come from Li et al. 2023 (doi:10.1038/s41467-023-39022-2) through the FLAb antibody collection.